Activity calls are given as the source filed them. The calls are words filed in the database; no cut-off is given here.
Target: T1, Olfactory receptor 51E2 (Homo sapiens) (UniProt Q9H255)
T1 sequence (whole entry): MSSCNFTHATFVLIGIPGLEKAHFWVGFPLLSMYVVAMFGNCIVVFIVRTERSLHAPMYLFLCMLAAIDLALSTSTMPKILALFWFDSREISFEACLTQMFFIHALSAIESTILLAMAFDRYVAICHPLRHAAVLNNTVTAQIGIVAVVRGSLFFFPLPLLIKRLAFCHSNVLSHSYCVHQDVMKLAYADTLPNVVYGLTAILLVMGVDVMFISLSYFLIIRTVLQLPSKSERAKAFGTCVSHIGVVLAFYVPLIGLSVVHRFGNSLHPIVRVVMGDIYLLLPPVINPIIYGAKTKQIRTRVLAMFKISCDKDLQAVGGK
Assay: Antagonist activity at PSGR/OR51E2 (unknown origin) expressed in human Hana3A cells co-transfected with CRE-Luc assessed as reduction in 19-OH-AD-induced response by luciferase reporter gene assay
Type: functional, cell-based

SMILES: CC1=C(/C=C/C(C)=C/C=C/C(C)=C\C(=O)O)C(C)(C)CCC1
- inhibition: Active
